The results in this text go back to US8906933B2, “Dihydropyrimidin-2(1H)-one compounds as neurokinin-3 receptor antagonists” (N30 Pharmaceuticals, Inc., priority 2010, dated 2014).

Chains of the proteins cited; added tags and fusions are not shown. Lines headed by an entry give the natural chain unless they say otherwise; changes in a name come on top.
UniProt P11766: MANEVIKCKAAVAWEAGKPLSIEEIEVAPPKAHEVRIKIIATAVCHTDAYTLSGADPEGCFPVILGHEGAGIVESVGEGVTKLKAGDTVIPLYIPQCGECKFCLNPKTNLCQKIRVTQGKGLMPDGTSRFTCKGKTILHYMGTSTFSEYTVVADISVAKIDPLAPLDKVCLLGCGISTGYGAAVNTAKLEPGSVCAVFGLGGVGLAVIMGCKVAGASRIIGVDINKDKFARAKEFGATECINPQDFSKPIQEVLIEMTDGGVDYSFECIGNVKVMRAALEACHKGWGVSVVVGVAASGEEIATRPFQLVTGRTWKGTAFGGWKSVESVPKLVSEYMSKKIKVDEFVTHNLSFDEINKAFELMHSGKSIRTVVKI

The test concerns the target GSNOR (Homo sapiens (Human), UniProt P11766). The test can be described thus: GSNOR IC50 (method in incorporated applications). In kind it is biochemical.

As to `CCOc1cc([C@@H]2NC(=O)NC(c3ccccc3)=C2c2ccsc2)cc([N+](=O)[O-])c1O` [4-(3-ethoxy-4-hydroxy-5-nitrophenyl)-6-phenyl-5-(thiophen-3-yl)-3,4-dihydropyrimidin-2(1H)-one], the IC50 came out at 18 nM.
